Laboratory results published in PubChem BioAssay (NCI).
Only a part is listed here, and it is no random draw. Some results for these compounds are left out of this collection, so the calls shown say nothing about other tests.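 Assay: single dose, 48 h. Readout: percent growth (0 = no net growth; negative = cell death). Active: <10.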 Active and inactive are the calls of the source.

Tests used:
Assay in all cases: NCI-60 one-dose screen, 48 h (100 = growth as untreated, 0 = no growth, -100 = all killed)
Conditions in all cases: 10 µM
[1] = test system: NCI-H23 lung
[2] = test system: NCI-H226 lung
[3] = test system: NCI-H322M lung
[4] = test system: HOP-62 NSCLC
[5] = test system: NCI-H460 lung
[6] = test system: HOP-92 NSCLC
[7] = test system: NCI-H522 lung
[8] = test system: A549/ATCC NSCLC
[9] = test system: 786-0 renal
[10] = test system: DU-145 prostate
[11] = test system: K-562 leukemia
[12] = test system: MDA-MB-231 breast
[13] = test system: RXF 393 renal
[14] = test system: SF-268 CNS
[15] = test system: SF-295 CNS
[16] = test system: SF-539 CNS
[17] = test system: UACC-257 melanoma
[18] = test system: M14 melanoma
[19] = test system: COLO 205 colon
[20] = test system: MALME-3M melanoma

Measured: growth

ClCCN(CCCl)Cc1ccsc1Br
inactive: [1] 94.1% | [2] 93.2% | [3] 106% | [4] 92.1% | [5] 37.9% | [6] 84.2% | [7] 99.7% | [8] 81.1% | [9] 105% | [10] 90% | [11] 69.8% | [12] 87.8% | [13] 95.3% | [14] 79.4% | [15] 92.6% | [16] 87.7% | [17] 83.1% | [18] 93.1%

ClCCN(CCCl)C1CCCCC1
inactive: [1] 101% | [2] 82.5% | [3] 93.2% | [4] 107% | [5] 91.4% | [6] 101% | [7] 94.8% | [8] 93.5% | [9] 105% | [19] 112% | [10] 97.6% | [11] 101% | [20] 99.5% | [12] 106% | [13] 107% | [14] 96.2% | [15] 101% | [16] 93.9% | [17] 106% | [18] 98.9%

CC[N+](C)(C)Cc1cccc(Cc2ccccc2)c1OC(=O)N(C)C
inactive: [1] 98.6% | [2] 97.1% | [3] 92.2% | [4] 100% | [5] 108% | [6] 102% | [7] 102% | [8] 97.1% | [9] 99.1% | [19] 107% | [10] 113% | [11] 89.8% | [20] 103% | [12] 100% | [14] 99.6% | [15] 97.8% | [16] 101% | [17] 93.6% | [18] 101%

N#CC(C#N)=Cc1cccc(Br)c1
inactive: [1] 104% | [2] 97.5% | [3] 113% | [4] 102% | [5] 102% | [6] 86% | [7] 90.6% | [8] 101% | [9] 99.4% | [19] 113% | [10] 106% | [11] 101% | [20] 115% | [12] 110% | [13] 111% | [14] 102% | [15] 95.7% | [16] 100% | [17] 108% | [18] 100%

CCCN(CCCl)CCCl
inactive: [1] 120% | [2] 98.7% | [3] 105% | [4] 102% | [5] 102% | [6] 93.6% | [7] 86.1% | [8] 97.3% | [9] 108% | [19] 103% | [10] 117% | [11] 123% | [20] 111% | [12] 110% | [13] 102% | [14] 110% | [16] 102% | [17] 95.1% | [18] 103%

N#CC(C#N)=Cc1ccccc1Cl
inactive: [1] 98.7% | [2] 95.9% | [3] 103% | [5] 114% | [6] 113% | [7] 114% | [8] 104% | [9] 101% | [19] 112% | [10] 102% | [20] 91.6% | [12] 107% | [13] 105% | [14] 108% | [15] 98.7% | [16] 113% | [17] 105% | [18] 107%

CC(C)(C)N(CCCl)CCCl
inactive: [1] 105% | [2] 97.8% | [3] 107% | [4] 112% | [5] 104% | [6] 89.5% | [7] 82.8% | [8] 94.3% | [9] 102% | [19] 108% | [10] 109% | [11] 107% | [20] 107% | [12] 113% | [13] 102% | [14] 113% | [16] 95.2% | [17] 84.8% | [18] 112%

ClCCCCCC(CCl)NCCCl (stereo not drawn)
inactive: [1] 71% | [2] 86% | [3] 96.8% | [5] 39.3% | [6] 90.7% | [7] 94.9% | [8] 66.8% | [9] 88.5% | [19] 96.7% | [10] 84.5% | [11] 86.7% | [20] 93.3% | [12] 108% | [13] 108% | [14] 71.8% | [15] 86.3% | [16] 81% | [17] 94.7% | [18] 95.1%

CCNCCCl
inactive: [1] 115% | [2] 113% | [3] 106% | [4] 113% | [5] 107% | [8] 104% | [9] 111% | [19] 109% | [10] 96.3% | [11] 115% | [20] 122% | [12] 110% | [13] 115% | [14] 109% | [16] 94.1% | [17] 105% | [18] 105%

ClCCN(CCCl)Cc1cc(Cl)cc(Cl)c1
inactive: [1] 74.2% | [2] 87.2% | [3] 85.8% | [4] 63.1% | [5] 24.2% | [6] 59.8% | [7] 65.2% | [8] 71.4% | [9] 71% | [19] 80.3% | [10] 74.2% | [11] 76.1% | [20] 77.4% | [12] 95.4% | [13] 84.5% | [14] 81.7% | [15] 37.1% | [16] 62.6% | [17] 70.7% | [18] 75.9%

CN(C)CCOC(=O)C(O)(c1ccccc1)c1ccccc1
inactive: [1] 110% | [2] 108% | [3] 88% | [4] 89.2% | [5] 116% | [6] 89.2% | [7] 119% | [8] 106% | [9] 115% | [19] 122% | [10] 111% | [11] 104% | [20] 82.1% | [12] 107% | [13] 115% | [14] 110% | [15] 109% | [16] 96.4% | [17] 109% | [18] 109%

Cc1cc2nc(CN(CCCl)CCCl)[nH]c2cc1C
inactive: [1] 78.6% | [2] 76.7% | [3] 121% | [4] 79% | [5] 43.7% | [6] 58.2% | [7] 75.1% | [8] 84.8% | [9] 81.5% | [19] 83.3% | [10] 99.4% | [11] 94.1% | [20] 96.8% | [12] 87.1% | [14] 74.7% | [15] 89.2% | [16] 72.6% | [17] 87.5% | [18] 91.9%
